Laboratory results reported in patent US12655107B2 (The United States of America, as represented by the …, priority 2018, dated 2026).

Columns and labels:
Huh7 = test: MTT cytotoxicity assay, Huh7; assay type: cell-based; conditions: Homo sapiens, Huh-7, 72 h, read-out: GI50 (μM) Huh7
A549 = test: MTT cytotoxicity assay, A549; assay type: cell-based; conditions: Homo sapiens, A549, 72 h
CCRF-CEM = test: MTT cytotoxicity assay, CCRF-CEM; assay type: cell-based, human; conditions: 72 h; for GI50 (μM) CCRF-CEM: MTT, Table 1b
DU145 = test: MTT cytotoxicity assay, DU145; assay type: cell-based; conditions: Homo sapiens, DU-145, 72 h
HCT116 = test: MTT cytotoxicity assay, HCT116; conditions: Homo sapiens, HCT-116, 72 h
[1] = Pharmacokinetic study in rat; conditions: SD rats
MCF-7 = test: MTT cytotoxicity assay, MCF-7; assay type: cell-based; conditions: Homo sapiens, MCF7, 72 h, read-out: GI50 ± SC (μM) MCF-7

| Structure (SMILES) | GI50 (Huh7) [µM] | GI50 (A549; read-out: GI50 (μM) A549) [µM] | further results |
| --- | --- | --- | --- |
| CCN(CC)CCCOc1nc2c3cc4c(cc3ccc2c2cc(OC)c(OC)cc12)OCO4 [Compound 40b] | > 100 | – | – |
| COc1cc2c(=O)n(CCN3CCOCC3)c3c4cc5c(cc4ccc3c2cc1OC)OCO5 [Compound 23a, 2,3-Dimethoxy-12-(2-morpholinoethyl)-[1,3]dioxolo[4′,5′:4,5]benzo[1,2-c]phenanthridin-13(12H)-one] | > 100 | > 100 | – |
| COc1cc2c(=O)n(CCCN3CCN(C)CC3)c3c4cc5c(cc4ccc3c2cc1OC)OCO5 [Compound 24b, 2,3-dimethoxy-12-(3-(4-methylpiperazin-1-yl)propyl)-[1,3]dioxolo[4′,5′:4,5]benzo[1,2-c]phenanthridin-13(12H)-one] | > 100 | > 100 | – |
| COc1cc2c(OCCCN3CCOCC3)nc3c4cc5c(cc4ccc3c2cc1OC)OCO5 [Compound 43b, 2,3-Dimethoxy-13-(3-morpholinopropoxy)-[1,3]dioxolo[4′,5′:4,5]benzo[1,2-c]phenanthridine] | > 100 | > 100 | GI50 (CCRF-CEM; Homo sapiens, CCRF-CEM, read-out: GI50 (μM) CCRF-CEM): > 100 µM; GI50 (DU145; read-out: GI50 (μM) DU145): > 100 µM; GI50 (HCT116; read-out: GI50 (μM) HCT116): > 100 µM |
| COc1cc2c(cc1OC)-c1ccc3cc4c(cc3c1N(CCCN1CCCC1)C2)OCO4 [Compound 28b, 2,3-Dimethoxy-12-(3-(pyrrolidin-1-yl)propyl)-12,13-dihydro-[1,3]dioxolo[4′,5′:4,5]benzo[1,2-c]phenanthridine] | – | – | GI50 (μM) CCRF-CEM (CCRF-CEM): submicromolar concentration |
| COc1cc2c(OCCCN3CCCCC3)nc3c4cc5c(cc4ccc3c2cc1OC)OCO5 [Compound 42b, 2,3-Dimethoxy-13-(3-(piperidin-1-yl)propoxy)-[1,3]dioxolo[4′5′:4,5]benzo[1,2-c]phenanthridine] | > 100 | > 100 | GI50 (HCT116; read-out: GI50 (μM) HCT116): > 100 µM |
| COc1cc2c(=O)n(CCCN3CCOCC3)c3c4cc5c(cc4ccc3c2cc1OC)OCO5 [Compound 23b, 2,3-Dimethoxy-12-(3-morpholinopropyl)-[1,3]dioxolo[4′,5′:4,5]benzo[1,2-c]phenanthridin-13(12H)-one] | > 100 | > 100 | GI50 (DU145; read-out: GI50 (μM) DU145): > 100 µM |
| COc1cc2c(cc1OC)-c1ccc3cc4c(cc3c1N(CCCN1CCOCC1)C2)OCO4 [Compound 30b, 2,3-Dimethoxy-12-(3-morpholinopropyl)-12,13-dihydro-[1,3]dioxolo[4′,5′:4,5]benzo[1,2-c]phenanthridine] | > 100 | > 100 | GI50 (μM) CCRF-CEM (CCRF-CEM): submicromolar concentration |
| COc1cc2c(cc1OC)-c1ccc3cc4c(cc3c1N(CCN1CCOCC1)C2)OCO4 [Compound 30a, 2,3-Dimethoxy-12-(2-morpholinoethyl)-12,13-dihydro-[1,3]dioxolo[4′,5′:4,5]benzo[1,2-c]phenanthridine] | > 100 | – | GI50 (μM) CCRF-CEM (CCRF-CEM): submicromolar concentration |
| COc1cc2c(=O)n(CCN(C)C)c3c4cc5c(cc4ccc3c2cc1OC)OCO5 [Compound 19a, 12-(2-(Dimethylamino)ethyl)-2,3-dimethoxy-[1,3]dioxolo[4′,5′:4,5]benzo[1,2-c]phenanthridin-13(12H)-one] | – | – | MRTINF ([1]; i.g. 5 mg/kg): 4.73 ± 3.3 h; MRTINF ([1]; i.v. 1 mg/kg): 1.01 ± 0.023 h |
| COc1cc2c(cc1OC)-c1ccc3cc4c(cc3c1N(CCCN1CCCCC1)C2)OCO4 [Compound 29b, 2,3-Dimethoxy-12-(3-(piperidin-1-yl)propyl)-12,13-dihydro-[1,3]dioxolo[4′,5′:4,5]benzo[1,2-c]phenanthridine] | – | – | GI50 (μM) CCRF-CEM (CCRF-CEM): submicromolar concentration |
| CCN(CC)CCOc1nc2c3cc4c(cc3ccc2c2cc(OC)c(OC)cc12)OCO4 [Compound 40a, 2,3-Dimethoxy-13-(2-(diethylamino)ethoxy)-[1,3]dioxolo[4′,5′:4,5]benzo[1,2-c]phenanthridine] | > 100 | > 100 | – |
| COc1cc2c(OCCCn3ccnc3)nc3c4cc5c(cc4ccc3c2cc1OC)OCO5 [Compound 45b, 13-(3-(1H-imidazol-1-yl)propoxy)-2,3-dimethoxy-[1,3]dioxolo[4′,5′:4,5]benzo[1,2-c]phenanthridine] | – | – | GI50 (HCT116; read-out: GI50 (μM) HCT116): > 100 µM |
| COc1cc2c(OCCCN3CCN(C)CC3)nc3c4cc5c(cc4ccc3c2cc1OC)OCO5 [Compound 44b, 2,3-Dimethoxy-13-(3-(4-methylpiperazin-1-yl)propoxy)-[1,3]dioxolo[4′,5′:4,5]benzo[1,2-c]phenanthridine] | > 100 | – | – |
| COc1cc2c(=O)n(CCN(C)P3(=O)OCCO3)c3c4cc5c(cc4ccc3c2cc1OC)OCO5 [Compound 57, 2,3-dimethoxy-12-(2-(methyl(2-oxido-1,3,2-dioxaphospholan-2-yl)amino)ethyl)-[1,3]dioxolo[4′,5′:4,5]benzo[1,2-c]phenanthridin-13(12H)-one] | – | – | GI50 (DU145; read-out: GI50 ± SC (μM) DU145): 3.6 ± 0.25 µM; GI50 (A549; read-out: GI50 ± SC (μM) A-49): 1.9 ± 0.034 µM; GI50 (MCF-7): 1.8 ± 0.47 µM; GI50 (HCT116; read-out: GI50 ± SC (μM) HCT116): 5.9 ± 1.2 µM |
| COc1cc2c(OCCn3ccnc3)nc3c4cc5c(cc4ccc3c2cc1OC)OCO5 [Compound 45a, 13-(2-(1H-imidazol-1-yl)ethoxy)-2,3-dimethoxy-[1,3]dioxolo[4′,5′:4,5]benzo[1,2-c]phenanthridine] | – | – | GI50 (DU145; read-out: GI50 (μM) DU145): > 100 µM |
| COc1cc2c(OCCN3CCOCC3)nc3c4cc5c(cc4ccc3c2cc1OC)OCO5 [Compound 43a, 2,3-Dimethoxy-13-(2-morpholinoethoxy)-[1,3]dioxolo[4′,5′:4,5]benzo[1,2-c]phenanthridine] | > 100 | > 100 | – |
| COc1cc2c(=O)n(CCCO)c3c4cc5c(cc4ccc3c2cc1OC)OCO5 [Compound 17b, 12-(3-Hydroxypropyl)-2,3-dimethoxy-[1,3]dioxolo[4′,5′:4,5]benzo[1,2-c]phenanthridin-13(12H)-one] | – | > 100 | – |

Read-outs that look alike come from different tables or passages of the source.
